The nature of series [1]: in vitro. The following applies: human, liver microsomes, CLH. For orientation: Microsomes from liver hold many membrane-bound enzymes, among them those of drug oxidation.
Series [2] can be described thus: in vitro. The following applies: C57BL/6J, mouse, liver microsomes.
Series [3] is described as follows: in vitro. As to conditions: human, Caco-2.
Series [4] in a line: in vitro. The following applies: human, Caco-2. This is another data set of the same source.
The nature of series [5]: in vivo.
A short description of series [6]: in vitro. As to conditions: mouse, plasma.
A short description of series [7]: in vivo. As to conditions: C57BL/6J, mouse, po, 30 mg/kg.
Series [8] is described as follows: in vivo. As to conditions: C57BL/6J, mouse, po, 30 mg/kg. The source holds these as a separate data set.
Series [9] in a line: in vivo. As to conditions: C57BL/6J, mouse, po, 30 mg/kg. This is another data set of the same source.
Series [10] is described as follows: in vivo. This is another data set of the same source.
The nature of series [11]: in vivo. This is another data set of the same source.
A short description of series [12]: in vitro. The following applies: mouse, lungs.
Series [13] in a line: in vivo. This is another data set of the same source.
Series [14] can be described thus: in vitro. As to conditions: human, plasma.
Series [15] can be described thus: in vivo. The source holds these as a separate data set.
The nature of series [16]: in vivo. As to conditions: C57BL/6J, mouse, po, 30 mg/kg. The source holds these as a separate data set.
The nature of series [17]: in vivo. The source holds these as a separate data set.
Series [18] can be described thus: in vivo. The source holds these as a separate data set.
The nature of series [19]: in vivo. This is another data set of the same source.

SMILES strings stand for the structures. A value given as a limit tells only on which side of the number the result lay.

As to `Cc1csc2c(N[C@@H](C)CN3CCN(S(=O)(=O)c4ccc(Cl)c(C(F)(F)F)c4)CC3)ncnc12`, the microsomal CLint at 0.75 h, 0.5 µM in the series “in vitro [1]” is 631 µL/min/mg; in the series “in vitro [2]”, 1000 µL/min/mg.

Regarding `COC(=O)Nc1nc(C)c(S(=O)(=O)N2CCN(C[C@H](C)Nc3ncnc4c(C(F)(F)F)cccc34)CC2)s1`, the intrinsic metabolic clearance (microsomal CLint) at 0.75 h, 0.5 µM was determined as 97 µL/min/mg in the series “in vitro [1]” and 250 µL/min/mg in the series “in vitro [2]”. This compound showed a Papp A→B at 1 h, 10 µM in “in vitro [3]” of 7.37 ×10⁻⁶ cm/s. For the same compound, the Papp B→A at 1 h, 10 µM in “in vitro [4]” was 9.43 ×10⁻⁶ cm/s.

Consider `Cc1csc2c(N[C@@H](C)CN3CCN(S(=O)(=O)c4cnc(-c5ccccc5)s4)CC3)ncnc12`, for which the intrinsic clearance (microsomal CLint) at 0.75 h, 0.5 µM in the series “in vitro [1]” amounted to 117 µL/min/mg; in “in vitro [2]” it was 343 µL/min/mg.

Regarding `COC(=O)c1cccc2c(N[C@@H](C)CN3CCN(S(=O)(=O)c4ccc(Cl)c(Cl)c4)CC3)ncnc12`, the microsomal CLint at 0.75 h, 0.5 µM was 360 µL/min/mg in the series “in vitro [1]” and above 1070 µL/min/mg in “in vitro [2]”.

Turning to `COC(=O)Nc1nc(C)c(S(=O)(=O)N2CCN(C[C@H](C)Nc3ncnc4c(-c5ccc(F)c(CN(C)C)c5)cccc34)CC2)s1`, the microsomal CLint at 0.75 h, 0.5 µM in the series “in vitro [1]” amounted to 19 µL/min/mg; in the series “in vitro [2]”, 21 µL/min/mg. Also, the values for the exposure AUC(0-t) in “in vivo [5]” and in “in vivo [13]” were 158000 ng·h/mL and 149000 ng·h/mL, respectively. In addition, the unbound share (fraction unbound) at 5 h, 0.5 µM in “in vitro [6]” came out at 0.0086. The compound further returned an apical-to-basolateral permeability (Papp A→B) at 1 h, 10 µM in the series “in vitro [3]” of 1.43 ×10⁻⁶ cm/s. The bioavailability in the series “in vivo [7]” worked out at 68%. The compound also yielded a Fa in the series “in vivo [8]” of 77%. In “in vivo [9]”, this compound had a half-life of 1.87 h. In the series “in vitro [4]”, this compound gave a basolateral-to-apical permeability (Papp B→A) at 1 h, 10 µM of 5.13 ×10⁻⁶ cm/s. The Cmax was found to be 27300 ng/mL in “in vivo [10]” and 17800 ng/mL in the series “in vivo [11]”. For the same compound, the fraction unbound at 5 h, 5 µM in “in vitro [12]” was 0.0272.

Consider `COC(=O)Nc1nc(C)c(S(=O)(=O)N2CCN(C[C@H](C)Nc3ncnc4c(C(=O)N(C)C)cccc34)CC2)s1`, for which the fraction unbound at 5 h, 0.5 µM was below 0.01 in “in vitro [14]” and 0.0213 in “in vitro [6]”. In addition, the figures for the microsomal CLint at 0.75 h, 0.5 µM in the series “in vitro [1]” and in “in vitro [2]” were 11 µL/min/mg and 32 µL/min/mg, respectively. The compound also had a Papp B→A at 1 h, 10 µM in the series “in vitro [4]” of 12 ×10⁻⁶ cm/s. The compound also displayed a fraction unbound at 5 h, 5 µM in “in vitro [12]” of 0.306.

Take `Cc1csc2c(N[C@@H](C)C(=O)N3CCN(S(=O)(=O)c4ccc(Cl)c(Cl)c4)CC3)ncnc12`: the microsomal CLint at 0.75 h, 0.5 µM amounted to 260 µL/min/mg in the series “in vitro [1]” and 993 µL/min/mg in “in vitro [2]”.

As for `Cc1csc2c(N[C@@H](C)CN3CCN(S(=O)(=O)c4cc(Cl)c(Cl)s4)CC3)ncnc12`, the intrinsic clearance (microsomal CLint) at 0.75 h, 0.5 µM in “in vitro [1]” stood at 406 µL/min/mg; in the series “in vitro [2]” it was 913 µL/min/mg.

Turning to `Cc1csc2c(NC3(CN4CCN(S(=O)(=O)c5ccc(Cl)c(Cl)c5)CC4)CC3)ncnc12`, the microsomal CLint at 0.75 h, 0.5 µM was 738 µL/min/mg in the series “in vitro [1]” and above 1070 µL/min/mg in “in vitro [2]”.

For `Cc1noc(-c2ccc(S(=O)(=O)N3CCN(C[C@H](C)Nc4ncnc5c(C(F)(F)F)cccc45)CC3)s2)c1C`, the microsomal CLint at 0.75 h, 0.5 µM in the series “in vitro [1]” was determined as 459 µL/min/mg; in the series “in vitro [2]”, 486 µL/min/mg. In “in vitro [3]”, this compound yielded a Papp A→B at 1 h, 10 µM of 1.56 ×10⁻⁶ cm/s. The compound further displayed a Papp B→A at 1 h, 10 µM in “in vitro [4]” of 0.37 ×10⁻⁶ cm/s.

With `Cc1noc(-c2ccc(S(=O)(=O)N3CCN(C[C@H](C)Nc4ncnc5c(C)csc45)CC3)s2)c1C`, the intrinsic clearance (microsomal CLint) at 0.75 h, 0.5 µM in “in vitro [1]” was 610 µL/min/mg; in “in vitro [2]”, 1040 µL/min/mg.

In the case of `Cc1csc2c(N[C@@H](C)CN3CCN(S(=O)(=O)Cc4ccc(Cl)c(Cl)c4)CC3)ncnc12`, the microsomal CLint at 0.75 h, 0.5 µM in “in vitro [1]” and in “in vitro [2]” was above 1070 µL/min/mg in each case.

As for `CC(=O)Nc1ccc(S(=O)(=O)N2CCN(C[C@H](C)Nc3ncnc4c(C)csc34)CC2)cc1Cl`, the intrinsic clearance (microsomal CLint) at 0.75 h, 0.5 µM in the series “in vitro [1]” was 463 µL/min/mg; in “in vitro [2]”, 998 µL/min/mg.

Regarding `C[C@@H](CN1CCN(S(=O)(=O)c2ccc(Cl)c(Cl)c2)CC1)Nc1ncnc2ccn(C)c12`, the values for the microsomal CLint at 0.75 h, 0.5 µM in the series “in vitro [1]” and in the series “in vitro [2]” were 648 µL/min/mg and 858 µL/min/mg, respectively.

On to `Cc1csc2c(N3CCC[C@H]3CN3CCN(S(=O)(=O)c4ccc(Cl)c(Cl)c4)CC3)ncnc12`, for which the microsomal CLint at 0.75 h, 0.5 µM in “in vitro [1]” is 801 µL/min/mg; in the series “in vitro [2]” it was above 1070 µL/min/mg.

`COC(=O)Nc1nc(C)c(S(=O)(=O)N2CCN(C[C@H](C)Nc3ncnc4c(-c5cccnc5)cccc34)CC2)s1`: the fraction unbound at 5 h, 0.5 µM in the series “in vitro [14]” is below 0.01; in “in vitro [6]”, 0.0025. The intrinsic clearance (microsomal CLint) at 0.75 h, 0.5 µM is 345 µL/min/mg in “in vitro [1]” and 256 µL/min/mg in the series “in vitro [2]”. The maximum concentration (Cmax) in the series “in vivo [15]” amounted to 6100 ng/mL; in “in vivo [17]”, 35600 ng/mL. The half-life in the series “in vivo [16]” was 1.11 h. Further, the Papp A→B at 1 h, 10 µM in the series “in vitro [3]” was 1.31 ×10⁻⁶ cm/s. For the same compound, the bioavailability in “in vivo [7]” is 40%. The same compound returned a Fa in the series “in vivo [8]” of 56%. The same compound showed a Papp B→A at 1 h, 10 µM in the series “in vitro [4]” of 10 ×10⁻⁶ cm/s. Also, the AUC(0-t) in “in vivo [18]” amounted to 8450 ng·h/mL; in “in vivo [19]” it was 43600 ng·h/mL. Further, in the series “in vitro [12]”, the fraction unbound at 5 h, 5 µM was 0.0285.

Consider `Cc1csc2c(NC(C)(C)CN3CCN(S(=O)(=O)c4ccc(Cl)c(Cl)c4)CC3)ncnc12`, for which the intrinsic clearance (microsomal CLint) at 0.75 h, 0.5 µM in “in vitro [1]” is 386 µL/min/mg; in the series “in vitro [2]”, above 1070 µL/min/mg.

Consider `COC(=O)Nc1nc(C)c(S(=O)(=O)N2CCN(C[C@H](C)Nc3ncnc4c(-c5ccc(CN6CCCC6)cc5)cccc34)CC2)s1`, for which the fraction unbound at 5 h, 0.5 µM in “in vitro [14]” was below 0.01; in “in vitro [6]” it was 0.0049. The microsomal CLint at 0.75 h, 0.5 µM is 19 µL/min/mg in “in vitro [1]” and 143 µL/min/mg in the series “in vitro [2]”. Moreover, the Papp A→B at 1 h, 10 µM in the series “in vitro [3]” was 0.18 ×10⁻⁶ cm/s. The Papp B→A at 1 h, 10 µM in “in vitro [4]” turned out to be 10.6 ×10⁻⁶ cm/s. This compound displayed a fraction unbound at 5 h, 5 µM in the series “in vitro [12]” of 0.0192.

With `Cc1csc2c(N[C@@H](C)CN3CCN(S(=O)(=O)c4ccc(Cl)cc4)CC3)ncnc12`, the intrinsic metabolic clearance (microsomal CLint) at 0.75 h, 0.5 µM was 258 µL/min/mg in the series “in vitro [1]” and 693 µL/min/mg in the series “in vitro [2]”.

Take `CC[C@@H](CN1CCN(S(=O)(=O)c2ccc(Cl)c(Cl)c2)CC1)Nc1ncnc2c(C)csc12`: the intrinsic metabolic clearance (microsomal CLint) at 0.75 h, 0.5 µM in the series “in vitro [1]” was determined as 240 µL/min/mg; in “in vitro [2]”, 933 µL/min/mg.

Regarding `CC(=O)Nc1ncc(S(=O)(=O)N2CCN(C[C@H](C)Nc3ncnc4c(C)csc34)CC2)s1`, the values for the microsomal CLint at 0.75 h, 0.5 µM in the series “in vitro [1]” and in the series “in vitro [2]” were 22 µL/min/mg and 81 µL/min/mg, respectively.

As for `Cc1csc2c(N[C@@H](C)CN3CCN(S(=O)(=O)c4ccc(F)c(Cl)c4)CC3)ncnc12`, the microsomal CLint at 0.75 h, 0.5 µM in “in vitro [1]” was 469 µL/min/mg; in “in vitro [2]”, above 1070 µL/min/mg.

In the case of `C[C@@H](CN1CCN(S(=O)(=O)c2ccc(Cl)c(Cl)c2)CC1)Nc1ncnc2c(C(F)(F)F)cccc12`, the intrinsic clearance (microsomal CLint) at 0.75 h, 0.5 µM is 379 µL/min/mg in “in vitro [1]” and above 1070 µL/min/mg in the series “in vitro [2]”.

Take `CC(=O)Nc1nc(C)c(S(=O)(=O)N2CCN(C[C@H](C)Nc3ncnc4c(C)csc34)CC2)s1`: the intrinsic clearance (microsomal CLint) at 0.75 h, 0.5 µM in “in vitro [1]” stood at 117 µL/min/mg; in the series “in vitro [2]”, 146 µL/min/mg.

On to `Cc1nc(NC(C)CN2CCN(S(=O)(=O)c3ccc(Cl)c(Cl)c3)CC2)c2scc(C)c2n1` (stereo in doubt; 36a), for which the microsomal CLint at 0.75 h, 0.5 µM is 532 µL/min/mg in the series “in vitro [1]” and above 1070 µL/min/mg in “in vitro [2]”.

What is called microsomal CLint is the capacity of the preparation to metabolise the compound, expressed as a volume cleared per time. Low readings indicate greater metabolic stability, high ones faster metabolism. One may read the Papp A→B as how fast a substance crosses the layer from the apical side. Higher therefore signals fast passage. What is called Papp B→A is how fast a substance crosses the layer from the basolateral side. By AUC(0-t) is commonly meant exposure summed from dosing to a finite time, without extrapolation to infinity. Read a high AUC(0-t) as more exposure. The term fraction unbound denotes the share of the substance not bound to proteins or other matrix. The low end stands for little free substance, the high end for much free substance. For orientation: bioavailability means the share of a dose that reaches the circulation, judged against a reference dose that is usually intravenous. A low value points to little systemic uptake. A word on the half-life: it is the time needed for the level to fall by half in the phase considered. High values mean slow loss, low ones fast loss. By Cmax is commonly meant the maximum level reached in the sampled fluid or tissue.

Source of the values: ChEMBL document CHEMBL5385906, “Discovery of a Potent, Selective, and Orally Bioavailable Tool Compound for Probing the Role of Lysophosphatidic Acid Type 2 Receptor Antagonists in Fibrotic Disorders” (J Med Chem, 2023).
